Measured values: patent US8314256B2, “Modulators of ATP-binding cassette transporters” (Vertex Pharmaceuticals Incorporated, priority 2005, dated 2012)

By UniProt entry, the sequences of proteins in these tests, tags left out. Chains listed by the source or under a name are the forms on record and can include a tag or linker.
UniProt P13569, with tags, fused parts or gaps DEL508-508: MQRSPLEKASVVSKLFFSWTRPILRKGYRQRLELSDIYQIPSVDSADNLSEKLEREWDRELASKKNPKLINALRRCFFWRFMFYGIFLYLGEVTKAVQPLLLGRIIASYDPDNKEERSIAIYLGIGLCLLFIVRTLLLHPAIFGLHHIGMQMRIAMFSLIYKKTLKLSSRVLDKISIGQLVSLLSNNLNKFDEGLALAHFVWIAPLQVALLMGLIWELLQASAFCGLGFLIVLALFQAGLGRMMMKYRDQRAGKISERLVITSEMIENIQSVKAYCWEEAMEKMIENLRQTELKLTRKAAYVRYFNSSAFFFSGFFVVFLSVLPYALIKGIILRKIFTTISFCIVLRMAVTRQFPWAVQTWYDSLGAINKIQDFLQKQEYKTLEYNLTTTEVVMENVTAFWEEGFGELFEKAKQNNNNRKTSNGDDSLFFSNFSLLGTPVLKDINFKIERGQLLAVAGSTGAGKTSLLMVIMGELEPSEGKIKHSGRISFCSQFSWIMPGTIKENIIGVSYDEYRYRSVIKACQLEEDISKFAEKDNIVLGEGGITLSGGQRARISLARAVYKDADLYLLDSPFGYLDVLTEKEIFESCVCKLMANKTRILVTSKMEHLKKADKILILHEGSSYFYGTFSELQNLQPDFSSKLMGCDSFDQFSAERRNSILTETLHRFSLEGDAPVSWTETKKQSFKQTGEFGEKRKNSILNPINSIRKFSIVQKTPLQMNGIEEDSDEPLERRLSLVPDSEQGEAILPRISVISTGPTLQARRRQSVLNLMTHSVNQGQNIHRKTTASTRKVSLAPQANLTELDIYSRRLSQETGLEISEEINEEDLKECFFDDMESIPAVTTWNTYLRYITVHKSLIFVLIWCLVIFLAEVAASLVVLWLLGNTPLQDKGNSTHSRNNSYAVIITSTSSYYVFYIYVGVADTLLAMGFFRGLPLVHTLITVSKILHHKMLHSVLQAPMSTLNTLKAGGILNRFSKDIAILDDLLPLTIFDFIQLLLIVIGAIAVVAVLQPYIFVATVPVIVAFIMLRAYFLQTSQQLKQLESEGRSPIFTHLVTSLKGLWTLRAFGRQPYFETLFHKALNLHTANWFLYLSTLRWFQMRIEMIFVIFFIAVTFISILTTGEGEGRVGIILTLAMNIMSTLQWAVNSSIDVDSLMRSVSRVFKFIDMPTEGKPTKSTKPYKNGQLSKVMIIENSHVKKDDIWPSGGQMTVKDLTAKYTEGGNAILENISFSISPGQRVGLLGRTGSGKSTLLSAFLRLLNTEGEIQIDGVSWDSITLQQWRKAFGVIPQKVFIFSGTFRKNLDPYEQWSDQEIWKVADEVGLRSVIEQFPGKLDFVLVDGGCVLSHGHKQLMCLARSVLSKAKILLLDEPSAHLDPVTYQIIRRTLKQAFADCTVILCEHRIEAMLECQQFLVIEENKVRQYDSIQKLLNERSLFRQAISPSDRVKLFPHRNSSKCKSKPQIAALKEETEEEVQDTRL

Biological target: ΔF508-CFTR (Homo sapiens, UniProt P13569, DEL508-508)
Experiment: Membrane potential optical assay of ΔF508-CFTR modulation (Table 3 EC50; the table does not name the assay)
Description: Membrane Potential Optical Methods for Assaying ΔF508-CFTR Modulation Properties of Compounds
The optical membrane potential assay utilized voltage-sensitive FRET sensors described by Gonzalez and Tsien (See, Gonzalez, J. E. and R. Y. Tsien (1995) “Voltage sensing by fluorescence resonance energy transfer in single cells” Biophys J 69(4): 1272-80, and Gonzalez, J. E. and R. Y. Tsien (1997) “Improved indicators of cell membrane potential that use fluorescence resonance energy transfer” Chem Biol 4(4): 269-77) in combination with instrumentation for measuring fluorescence changes such as the Voltage/Ion Probe Reader (VIPR) (See, Gonzalez, J. E., K. Oades, et al. (1999) “Cell-based assays and instrumentation for screening ion-channel targets” Drug Discov Today 4(9): 431-439).
These voltage sensitive assays are based on the change in fluorescence resonant energy transfer (FRET) between the membrane-soluble, voltage-sensitive dye, DiSBAC2(3), and a fluorescent phospholipid, CC2-DMPE, which is attached to the outer leaflet of the plasma membrane and acts as a FRET donor. […] The changes in fluorescence emission were monitored using VIPR II, which is an integrated liquid handler and fluorescent detector designed to conduct cell-based screens in 96- or 384-well microtiter plates. […]

CC12CCC(C1)C(C)(C)C2NC(=O)C(=O)c1c[nH]c2ccc(Br)cc12 (stereo not shown) showed an EC50 of 1000 to 5000 nM.
